Paper PMC13376213, “Systematic discovery of motif-based interactions of the auxiliary domains of USP family deubiquitinases” (Nature Communications, 2026)
This is one part of the list.

Target: Ubiquitin carboxyl-terminal hydrolase 20 (UniProt Q9Y2K6)
Test: mass-spectrometry hit list; affinity purification or IP with mass spectrometry

For “Phospholipid hydroperoxide glutathione peroxidase GPX4, P36969”, the “listed as a hit” value was “yes”.
